The target of the assay is Neutrophil collagenase (Homo sapiens, UniProt P22894). The assay is described as follows: Inhibition of MMP8. The method in brief: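 Human active MMP (2 nM) preincubated with inhibitor (10 pM-1 mM) for 30 min at 37 °C in 50 mM Tris·HCl pH 7.5, 0.2 M NaCl, 5 mM CaCl₂, 20 µM ZnSO₄, 0.05% Brij 35. Fluorogenic Mca-Pro-Leu-Gly-Leu-Dpa-Ala-Arg-NH₂ substrate added (10 µL of 50 µM stock to 90 µL).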

Chains of the proteins cited; added tags and fusions are not shown. Lines headed by an entry give the natural chain unless they say otherwise; changes in a name come on top.
UniProt P22894: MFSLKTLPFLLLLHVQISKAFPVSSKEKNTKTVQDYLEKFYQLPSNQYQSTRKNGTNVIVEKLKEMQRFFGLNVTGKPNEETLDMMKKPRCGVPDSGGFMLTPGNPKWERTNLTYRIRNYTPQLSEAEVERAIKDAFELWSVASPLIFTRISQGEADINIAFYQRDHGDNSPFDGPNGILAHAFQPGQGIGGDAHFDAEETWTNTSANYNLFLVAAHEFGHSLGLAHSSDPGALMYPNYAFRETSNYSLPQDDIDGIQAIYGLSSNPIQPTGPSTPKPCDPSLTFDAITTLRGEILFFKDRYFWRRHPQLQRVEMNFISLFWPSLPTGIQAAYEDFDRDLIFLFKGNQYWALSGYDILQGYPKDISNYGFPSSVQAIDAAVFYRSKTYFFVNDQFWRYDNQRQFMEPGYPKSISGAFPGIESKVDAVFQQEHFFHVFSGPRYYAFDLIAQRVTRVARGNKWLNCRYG

For the compound `COc1ccc(S(=O)(=O)N(Cc2cccnc2)[C@@H](C(=O)NO)C(C)C)cc1` [CGS-27023A], the IC50 – broadly, the concentration needed to halve the response being measured – stood at 2 nM. In other words, the single-digit nanomolar range.

The values are drawn from ChEMBL document CHEMBL1138259, “Novel fluorinated derivatives of the broad-spectrum MMP inhibitors N-hydroxy-2(R)-[[(4-methoxyphenyl)sulfonyl](benzyl)- and (3-picolyl)-amino]-3-methyl-butanamide as potential tools for the molecular imaging of activated MMPs with PET” (J Med Chem, 2007).
